Laboratory results taken from US9962341B2, “Active pharmaceutical ingredient (API) comprising cannabinoids for use in the treatment of cancer” (GW Pharma Limited, priority 2014, dated 2018).

Assays:
BT474 = assay: Cell viability (CellTiter-Blue, 72 h), phytocannabinoids alone and in combination, BT474 breast cancer cells; assay type: cell-based; details: BT474, 10% FBS
Protocol: (§1) The cell lines tested in this Example were as follows. Breast cancer: MDA-MB-231; SK-BR3; and BT474. Liver cancer: HepG2.
(§2) The phytocannabinoids were tested alone and in various ratioed combinations in media containing final concentrations of 10% and 1% foetal bovine serum at 72 h for the breast and prostate cancer lines and 1% foetal bovine serum for the liver cancer line HepG2.
(§3) Each tumour cell line was maintained in vitro in RPMI 1640+10% heat inactivated FBS and 2 mM L-glutamine (growth media) at 37° C. in 5% CO2 and humidified conditions. The cells were harvested, washed, re-suspended into growth medium and counted. […]
(§4) The plates were incubated for 72 h at 37° C. in 5% humidified CO2. […] Fluorescence was measured using a Flex II Station plate reader (570 nm excitation wavelength, 600 nm emission wavelength, 590 nm cut-off) after 3 h. […]
(§5) The raw data values expressed in relative fluorescent units were normalised to the vehicle for each individual plate and any reduction in fluorescence indicated a decrease in viability.
(§6) The data were analysed in GraphPad PRISM using a non-linear sigmoidal plot with variable slope (asymmetric five point linear regression) and where possible an IC50 value for each single compound and combination was generated.

SKBR3 = assay: Cell viability (CellTiter-Blue, 72 h), SKBR3 breast cancer cells; assay type: cell-based
Protocol: as §1, §2, §3, §4, §5, §6

## Herceptin: Herceptin (in the clinical formulation), positive control for the SKBR3 & BT474 cell lines [reference compound]
BT474
  IC50: 13 nM
SKBR3; SKBR3, 1% FBS
  IC50: > 1000 nM
SKBR3; SKBR3, 10% FBS
  IC50 values: NE at 1 μM
